Yeast mating assay B: variants of the scFv Ab-14

Binding partner: SARS-CoV-2 spike HR2 peptide, sequence PDVDLGDISGINAS.

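The starting antibody came from a phage panning campaign against this peptide. The variants were designed computationally from a first round of random CDR variants and then made and measured. Group labels follow the data file (Ctrl: baseline library sampled from a position-specific scoring matrix, with some repeated check sequences; En: ensemble of fine-tuned language models; GP: Gaussian process model; GPLM: also part of the Gaussian process libraries; HC: hill climbing; Gen: genetic algorithm; Gibbs: Gibbs sampling; a sequence that several methods proposed may carry one label only). AlphaSeq pools MATa yeast showing the antibodies with MATalpha yeast showing the peptide. After mating in shaken culture at 30 °C for 16 h, diploids were selected and their barcode pairs sequenced. Read counts were normalised to the haploid input and turned into Kd by a linear fit to BCL2-family pairs of known affinity, for each replicate. Mating was done six times.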

Parent scFv Ab-14: VH joined to VL by a 15-residue (Gly4Ser)3 linker. Changes lie in the light chain CDRs alone.
VH: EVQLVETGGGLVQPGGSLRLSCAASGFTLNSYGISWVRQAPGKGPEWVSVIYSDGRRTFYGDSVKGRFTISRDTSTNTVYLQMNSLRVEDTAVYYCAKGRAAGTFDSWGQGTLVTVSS
VL: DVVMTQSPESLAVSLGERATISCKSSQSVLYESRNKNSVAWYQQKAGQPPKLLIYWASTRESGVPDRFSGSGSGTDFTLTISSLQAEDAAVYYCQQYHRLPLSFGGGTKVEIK

Each variant is given by its three light chain CDRs, as the data file delimits them; those of the parent are KSSQSVLYESRNKNSVA, WASTRES, QQYHRLPLS.
Scale: log10 of Kd in nM, estimated from mating counts; low values are strong binders.
An entry "ND" has no value in the source: the pair was not observed among the diploids in that replicate. This suggests poor binding but is not conclusive.
Values of this round are not directly comparable with the first-round values of the same sequences.
In the paper, a design with two or fewer of six values counts as a poor binder.
Empty control strains, which show no peptide, gave a signal in 4% of pairings with all light chain designs; the median was 2.64 and 95% of these signals were weaker than 1.59. No background was subtracted.
The parent sequence was in this pool as ten entries: three were never detected, three once, and four in most replicates, with averages from 0.34 to 2.37.

log10 Kd (nM) by replicate,CDR-L1,CDR-L2,CDR-L3,group
1.87 / ND / ND / ND / 3.83 / 2.59,KLSQSTLYESRNKNSVA,WASTRES,QQYHRLPLS,GPLM_HC
2.40 / 1.43 / 1.33 / 2.00 / 1.71 / 2.16,TIGGTLMYGMRNRSNVA,EVSQRLN,QQYDRLPLI,En_Gen
-0.34 / -0.63 / -0.73 / -0.80 / -0.76 / -0.80,KLSTSVMLESRNVNSVA,DASTREE,QQYHRLPLS,GP_Gibbs
1.55 / 1.38 / ND / 1.80 / 1.72 / 0.78,KSTQSVLYESNNKNSVA,WASTRES,QQYARLPLS,Ctrl
0.42 / 0.06 / 0.16 / 0.19 / 0.11 / 0.22,KVSQSELYESRDANNVA,NASTREN,QQYHRLPLS,GP_Gibbs
1.32 / 1.92 / 2.18 / 1.92 / 1.97 / 2.10,KCSQSGLYESRNKNSVA,WASTRES,QQYHRLPLS,Ctrl
ND / ND / ND / ND / ND / ND,KSSQSYLYESRNKNSVA,WASTRES,QQYHRLPLS,Ctrl
ND / 1.69 / 1.02 / 2.20 / 1.12 / 2.03,KLYDDATSRVQDAENIA,EKTESLQ,QQYHRLPLS,En_Gibbs
1.21 / 1.46 / 1.25 / 1.52 / 1.54 / 1.55,KSSQSVLVESRNKNSVA,HASTRTS,QQYHRLPLS,Ctrl
ND / 1.89 / ND / ND / 2.74 / ND,KSQQSVLYESRMKNSVA,WASTRES,QSYHRLPPS,Ctrl
1.10 / 1.02 / 0.99 / 1.07 / 1.27 / 1.09,RISQTIQENVRQYNSVA,NGMTRNA,QHYSRLPLE,En_Gibbs
ND / ND / ND / ND / ND / ND,KLSISYLFESLEKNSIA,ENSTREK,QHYHRLPLS,En_HC
ND / ND / ND / ND / ND / ND,MIGEMLMQGQYIRNSVA,QANIRAQ,QHYNRLPLE,En_Gen
0.18 / -0.16 / 0.06 / -0.49 / -0.52 / -0.02,MISQLYNMGQFAINSVA,QASTRNE,QQYDRLPLM,En_Gen
ND / ND / ND / ND / ND / ND,KSSQSVLSESRNKNSVA,WASTRES,QQYHRLPLP,Ctrl
2.61 / 2.10 / 1.86 / 1.73 / 2.22 / 2.18,KSSQSVLAESRNINSVA,QASTRGS,QQYHRLPLS,Ctrl
ND / ND / ND / ND / ND / ND,KSRQSVLYESRNKNDVA,SASTRES,QQYHQLYLG,Ctrl
-0.30 / 0.08 / -0.10 / -0.12 / 0.46 / 1.17,HLMPSNLHYTEHLNSVA,EAEERQE,QHYARLPLM,En_Gibbs
-0.15 / -0.20 / -0.29 / -0.20 / -0.35 / -0.22,KLEQSKLYESRNKNSVA,NASQRES,QQYHRLPLS,GP_Gen
0.72 / 0.36 / 0.16 / 0.15 / 0.01 / 0.02,RVSSELMAGEISYNAIA,NTKVLEY,QQYMRLPLG,En_Gibbs
1.05 / 1.55 / 1.52 / 1.17 / 0.68 / 1.87,KSSQSVVYEIRNENSVA,WASTRES,QQYHRLPLS,Ctrl
-0.01 / -0.10 / -0.33 / -0.22 / -0.09 / -0.06,KLRQSTGYESRNKNSVA,GASTRES,QQYHRLPLS,GP_HC
ND / ND / ND / ND / ND / ND,VSSQSVLYESRNKNSVA,SASTRES,QLYHRAPLS,Ctrl
0.66 / 0.38 / 0.46 / 0.51 / 0.54 / 0.49,TLVQSVMGSSRTKNSVA,NAETRYD,QHYHRLPLS,En_HC
0.16 / 0.30 / 0.29 / 0.13 / 0.15 / -0.02,KLSPSVLYESRNKNSVA,EASTRES,QQYHRLPLS,GP_Gen
0.59 / 0.31 / 0.24 / 0.37 / 0.21 / 0.52,KSSQSVWYESRNKNSVA,GASTRES,QQYHRLPLS,Ctrl
ND / ND / ND / ND / ND / ND,WSSQSVLYESRNKNSVA,WASTRES,QQYHRKPLM,Ctrl
ND / ND / ND / ND / ND / ND,MSSQSVLLESRNKNSVA,WASTRES,QQYHRLLLS,Ctrl
0.74 / 0.05 / 0.22 / 0.25 / 0.73 / 0.63,MVYEATMMGGTARNSIA,NAQMRPN,QQYHRLPLI,En_Gen
2.59 / 2.05 / 2.07 / 0.95 / 2.68 / 2.26,KVSDPMVEWIANQSAVA,DHADVQH,QQYARLPLS,En_Gibbs
0.50 / 0.30 / 1.20 / 1.85 / 0.77 / 0.66,NLYQSMNFLGRVANSIA,DASTIWD,QQYHRLPLS,En_HC
0.22 / 0.37 / -0.03 / -0.04 / 0.12 / 0.29,KLSQSMLYESRNWNSVA,QASTRED,QQYHRLPLT,GP_Gibbs
0.11 / -0.13 / -0.20 / -0.24 / -0.17 / 0.08,KVSQSVLYESRMKNSVA,DASTRMS,QQYHRLPLS,GP_HC
0.28 / 0.11 / 0.24 / 0.20 / 0.09 / 0.14,MISDLTMYGSRNVNSVA,DLSTRGS,QQYHRLPLS,En_HC
0.78 / 1.15 / 0.97 / 1.28 / 0.97 / 1.32,MISQLMNVGQFAINSVA,QASIRNA,QQYDRLPLA,En_Gen
1.26 / 0.81 / 1.19 / 0.98 / 0.69 / 0.82,KISQMVRVGATHNNSIA,EEQTRAK,QQYHRLPLA,En_Gen
ND / ND / ND / 1.83 / ND / 1.74,KSSQSGLYESRNANSVA,WASTRES,QQYHRLPLM,Ctrl
0.45 / 0.29 / 0.25 / 0.25 / 0.20 / 0.24,KVSESELYESRWKNSVA,NASYRES,QQYHRLPLS,GP_Gibbs

The closing 4 entries, repeated:

| CDR-L1 | CDR-L2 | CDR-L3 | group | log10 Kd (nM) by replicate |
|---|---|---|---|---|
| MISQLMNVGQFAINSVA | QASIRNA | QQYDRLPLA | En_Gen | 0.78 / 1.15 / 0.97 / 1.28 / 0.97 / 1.32 |
| KISQMVRVGATHNNSIA | EEQTRAK | QQYHRLPLA | En_Gen | 1.26 / 0.81 / 1.19 / 0.98 / 0.69 / 0.82 |
| KSSQSGLYESRNANSVA | WASTRES | QQYHRLPLM | Ctrl | ND / ND / ND / 1.83 / ND / 1.74 |
| KVSESELYESRWKNSVA | NASYRES | QQYHRLPLS | GP_Gibbs | 0.45 / 0.29 / 0.25 / 0.25 / 0.20 / 0.24 |

From the AlphaSeq antibody data of Li et al. 2023 (doi:10.1038/s41467-023-39022-2), copy in the FLAb collection.